According to patent US20260258474A1:
pKd: −log10 of the molar value.

Key:
[1] = biological target: HER2 tyrosine kinase receptor, endogenous protein of BT-474 / MCF7 cells (UniProt P04626); experiment: apparent Kd, determined according to Example 6 (bi-component dPCR assay)
[2] = biological target: HER2 tyrosine kinase receptor, endogenous protein of BT-474 / MCF7 cells (UniProt P04626); experiment: apparent Kd ('exemplary Kds'), determined see Example 6 (bi-component dPCR assay)
[3] = biological target: HER2 tyrosine kinase receptor, endogenous protein of BT-474 / MCF7 cells (UniProt P04626); experiment: apparent Kd; compartmentalized bi-component (PICO) dPCR assay, antibody titration on BT-474 cell lysate, recursive fit

Q: How did the pKd [1] turn out when “Trastuzumab (TTZ), recombinant humanized monoclonal anti-HER2 antibody, conjugated with a DNA oligonucleotide label” was run?
A: 10.31

Q: What does the source list for “Pertuzumab (PTZ), recombinant humanized monoclonal anti-HER2 antibody, conjugated with a DNA oligonucleotide label”?
A: pKd [1]: 10.03; pKd [2]: 10.13; pKd [3]: 10.03
